These are literature values, as cited in patent publication US11000488B2 (priority 2019, dated 2021).

The chains behind the UniProt entries cited, without tags or fusion partners.
UniProt P35372, whole entry, species assumed: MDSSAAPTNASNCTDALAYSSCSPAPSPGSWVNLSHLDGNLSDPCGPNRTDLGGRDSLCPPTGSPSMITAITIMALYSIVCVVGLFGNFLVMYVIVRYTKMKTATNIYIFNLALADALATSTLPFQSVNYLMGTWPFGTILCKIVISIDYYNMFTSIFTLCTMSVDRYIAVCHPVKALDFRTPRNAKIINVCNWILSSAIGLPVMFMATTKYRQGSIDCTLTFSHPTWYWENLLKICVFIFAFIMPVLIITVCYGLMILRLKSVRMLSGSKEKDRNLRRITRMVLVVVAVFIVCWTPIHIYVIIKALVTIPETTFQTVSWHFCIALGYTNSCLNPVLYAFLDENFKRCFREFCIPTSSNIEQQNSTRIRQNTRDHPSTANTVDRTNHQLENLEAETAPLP

The series addresses μ-opioid receptor (Homo sapiens, UniProt P35372). The following applies: in vitro; read-out: μ-opioid receptor binding affinity (Ki); cited from earlier work.

Turning to `CN(C)C[C@H]1CCCC[C@]1(O)c1cccc(O)c1` [(+)-M1, (1R,2R)-O-desmethyltramadol], the Ki (in general, the dissociation constant of the complex between target and ligand, obtained from inhibition or displacement) is 3.4 nM.
As to `CN(C)CC1CCCCC1(O)c1cccc(O)c1` (single isomer, unassigned; (-)) [(−)-M1], the Ki was 240 nM.
